What follows are compounds tested against T1, ER (Homo sapiens, UniProt P03372) (assay: Relative binding affinity (RBA)).
T1 construct: endogenous in cells
Method: Example compounds were assayed to determine ER downregulation, relative binding affinity, and ER antagonism.

Amino acid sequences for entries named in this document (tags omitted).
UniProt P03372, whole entry: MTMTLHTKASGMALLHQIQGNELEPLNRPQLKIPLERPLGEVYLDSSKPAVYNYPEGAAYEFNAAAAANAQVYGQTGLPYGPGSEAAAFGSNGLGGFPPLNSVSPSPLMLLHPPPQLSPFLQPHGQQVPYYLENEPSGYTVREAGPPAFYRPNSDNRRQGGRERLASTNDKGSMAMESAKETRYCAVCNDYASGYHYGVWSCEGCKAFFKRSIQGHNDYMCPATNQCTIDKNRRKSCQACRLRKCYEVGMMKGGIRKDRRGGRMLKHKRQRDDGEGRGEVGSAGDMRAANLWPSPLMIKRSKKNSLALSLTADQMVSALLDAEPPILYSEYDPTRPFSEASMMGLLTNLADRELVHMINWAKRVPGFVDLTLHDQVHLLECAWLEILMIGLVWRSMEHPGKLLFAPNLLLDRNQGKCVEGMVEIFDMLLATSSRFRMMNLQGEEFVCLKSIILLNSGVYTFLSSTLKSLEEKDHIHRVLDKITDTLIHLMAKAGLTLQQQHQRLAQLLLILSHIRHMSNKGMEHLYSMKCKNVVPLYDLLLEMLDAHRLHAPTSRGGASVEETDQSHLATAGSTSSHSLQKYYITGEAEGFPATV

Point of comparison: `Cc1cc(O)ccc1C(=O)c1sc2cc(O)ccc2c1Oc1ccc(OCCN2CC(CF)C2)cc1` [Compound 2, (3-(4-(2-(3-(fluoromethyl)azetidin-1-yl)ethoxy)phenoxy)-6-hydroxybenzo[b]thiophen-2-yl)(4-hydroxy-2-methylphenyl) methanone], “RBA (%)” value 21.9 ± 3%. Against it:
- C[C@]12CC[C@@H]3c4ccc(O)cc4C[C@@H](CCCCCCCCC[S+]([O-])CCCC(F)(F)C(F)(F)F)[C@H]3[C@@H]1CC[C@@H]2O (some centres unmarked) [Fulvestrant, fulvestrant, reference compound] — lower, 17.7%
- O=C(c1ccc(O)cc1)c1sc2cc(O)ccc2c1Oc1ccc(OCCN2CC(CF)C2)cc1 [Compound 1, (3-(4-(2-(3-(fluoromethyl)azetidin-1-yl)ethoxy)phenoxy)-6-hydroxybenzo[b]thiophen-2-yl)(4-hydroxyphenyl) methanone] — higher, 57.0 ± 14%
- Cc1cc(F)cc(C)c1C(=O)c1sc2cc(O)ccc2c1Oc1ccc(OCCN2CC[C@@H](CF)C2)cc1 [Compound 35, (R)-(4-fluoro-2,6-dimethylphenyl)(3-(4-(2-(3-(fluoromethyl)pyrrolidin-1-yl)ethoxy)phenoxy)-6-hydroxybenzo[b]thiophen-2-yl)methanone] — higher, 32.6 ± 6%
- Cc1cc(F)cc(C)c1C(=O)c1sc2cc(O)ccc2c1Oc1ccc(OCCN2CC(CF)C2)cc1 [Compound 5, (4-fluoro-2,6-dimethylphenyl)(3-(4-(2-(3-(fluoromethyl)azetidin-1-yl)ethoxy)phenoxy)-6-hydroxybenzo[b]thiophen-2-yl)methanone] — higher, 59.6 ± 3%

Source: patent US12295939B2, “Substituted benzothiophene analogs as selective estrogen receptor degraders” (The Board of Trustees of the University of Illinois, priority 2018, dated 2025)
